From PubChem
UUG fidelity: modulators of start codon recognition fidelity in yeast; AID 602363; hit rate 0.13% among 350,000; activity score, % at 18.7 µM; S. cerevisiae UUG-firefly luciferase reporter, luminescence/redox ratio;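 active = replicate mean at a twofold rise or more, about +100% in these data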;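 note: firefly luciferase made from a UUG start codon reports start codon fidelity; reporter light over untreated wells divided by growth signal over untreated wells; some hits fall short of that in this replicate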
MC4R antagonist: blocks human MC4R cAMP signaling; P32245; AID 540295; MC4R-expressing cells, MTII-stimulated cAMP, LANCE TR-FRET; actives 0.48% (n = 360,000); inhibition, % at 6.5 µM;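 active = inhibition above its plate's cutoff, the mean of tested wells on that plate plus 3 SD, cut at about 29% in these data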;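 note: 0% = Melanotan II alone and 100% = Melanotan II plus saturating MCL0020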
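Assay system: U2OS cells stably expressing human melanocortin 4 receptor (MC4R) / Dosing: 6.5 µM / Timing: compound 30 min, challenge 1 h, detection 1 h / Measured by: Eu-cAMP/anti-cAMP TR-FRET, emission 671 nm / Replicates: singlicate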
NALP1 yeast inh: inhibitors of NALP1 inflammasome in yeast | S. cerevisiae NALP1/ASC/caspase-1 growth, X-gal OD620, 72 h | inhibition, % at 10 µM | actives 0.61% (n = 280,000) | AID 2071; in the data active = inhibition mostly above about 24%, no sharp cut-off; inactive = mostly below about 32%
HDAC3 inhib: blocks human histone deacetylase 3. O15379. recombinant HDAC3, fluorogenic peptide/trypsin coupled, fluorescence. inhibition, % at 8.3 µM. actives 0.15% (n = 320,000); in the data active = inhibition above about 26%, passing the limit was not always enough
MC4R ag barr: agonists of human melanocortin 4 receptor (MC4R) beta-arrestin; actives 0.98% (n = 360,000); P32245; activation, % at 8.9 µM; AID 540308; U2OS MC4R beta-arrestin complementation, luminescence; percent of melanotan II response, DMSO zero;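 active = activation above a per-plate cutoff, the mean activation of sample wells on that plate plus 3 SD, cut at about 8% in these data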
ALR inh: blocks human ALR sulfhydryl oxidase activity; inhibition, % (no concentration beside the values); hit rate 3.8% among 290,000; purified ALR, DTT oxidation, H2O2 HRP-luminol luminescence; AID 485317; P55789;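 active = mean and each replicate at 75% or more; inconclusive = only one of the two met; inactive = neither met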;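 note: stock transfer was 7.5 nL into about 7.5 µL; 0% = neutral wells and 100% = wells with inactivated enzyme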
cAMP nonselect: nonselective cAMP signaling inhibitor, MC4R antagonist counter-screen; shares compounds with MC4R antagonist; inhibition, % at 6.5 µM; parental U2OS, forskolin cAMP, LANCE TR-FRET; actives 26% (n = 1,600);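 active = mean inhibition over triplicates above the low-control well mean plus 3 SD, set per campaign, cut at about 13% in these data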;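 note: signal is single emission at 671 nm which falls as cellular cAMP rises; 0% = forskolin-stimulated wells and 100% = buffer without forskolin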
MC4R cAMP antag: human MC4R cAMP antagonism confirmation; shares compounds with MC4R antagonist; MC4R-expressing cells, MTII-stimulated cAMP, TR-FRET; inhibition, % at 6.5 µM; actives 27% (n = 1,600); AID 602195; in the data active = inhibition above about 29%;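 note: 0% = agonist stimulated wells alone and 100% = agonist stimulated wells plus saturating reference antagonist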
Numbers without * were called inactive. An excerpt weighted towards active compounds, which were near 4.2% of everything screened.

Preview (two entries):
`Nc1nc(SCC(=O)Nc2ncc(C(F)(F)F)cc2Cl)n[nH]1` gave MC4R antagonist 7, NALP1 yeast inh -12, HDAC3 inhib -6, MC4R ag barr 2 and ALR inh 10.
For O=C(COC(=O)[C@@H]1CCCN1S(=O)(=O)c1ccc(Cl)cc1)NC1CCS(=O)(=O)C1 (stereo partly drawn) the results were UUG fidelity -8, MC4R antagonist 7, HDAC3 inhib -2, MC4R ag barr 0 and ALR inh -6.

Results, previewed entries included:
`Nc1nc(SCC(=O)Nc2ncc(C(F)(F)F)cc2Cl)n[nH]1` gave MC4R antagonist 7, NALP1 yeast inh -12, HDAC3 inhib -6, MC4R ag barr 2 and ALR inh 10.
For O=C(COC(=O)[C@@H]1CCCN1S(=O)(=O)c1ccc(Cl)cc1)NC1CCS(=O)(=O)C1 (stereo partly drawn) the results were UUG fidelity -8, MC4R antagonist 7, HDAC3 inhib -2, MC4R ag barr 0 and ALR inh -6.
For O=C(COC(=O)[C@@H]1CCCN1S(=O)(=O)c1ccc(Cl)cc1)NC12CC3CC(CC(C3)C1)C2 the results were MC4R antagonist 32*, NALP1 yeast inh 30, HDAC3 inhib 11, MC4R ag barr 2, cAMP nonselect 14* and MC4R cAMP antag 34*.
CC(C(=O)c1ccccc1)[n+]1cccc(C(N)=O)c1 (stereo not drawn) was read as UUG fidelity -20, MC4R antagonist 33*, NALP1 yeast inh 2, HDAC3 inhib 3, MC4R ag barr 0, ALR inh -10, cAMP nonselect -5 and MC4R cAMP antag -20.
For CCN(CC)S(=O)(=O)c1ccc(N2CCOCC2)c(NC(=O)c2ccccc2F)c1 the results were MC4R antagonist 30*, NALP1 yeast inh -4, HDAC3 inhib 2, MC4R ag barr -3, ALR inh -8, cAMP nonselect 3 and MC4R cAMP antag 18.
For CCN(CC)S(=O)(=O)c1ccc(N2CCOCC2)c(NC(=O)c2ccc(F)cc2)c1 the results were MC4R antagonist 13, NALP1 yeast inh 2, HDAC3 inhib 9, MC4R ag barr -2 and ALR inh 0.
For O=C(Nc1cccc(C(=O)O)c1)Nc1ccc2c(c1)OCO2 the results were UUG fidelity -83, MC4R antagonist -2, NALP1 yeast inh 43, MC4R ag barr -2 and ALR inh -5.
Cc1ccc(C(=O)O)cc1NC(=O)Nc1ccc2c(c1)OCO2 was read as MC4R antagonist 30*, NALP1 yeast inh 2, HDAC3 inhib 3, MC4R ag barr 2, ALR inh -8, cAMP nonselect 2 and MC4R cAMP antag -1.
For COc1ccc(-c2cnc3c(c2)C(=O)N([C@H](C)CO)C[C@@H](C)[C@H](CN(C)C(=O)C2CC2)O3)cc1 the results were UUG fidelity 36.
Screening CC1=C/C(=N\OS(=O)(=O)c2ccccc2)C(C)=CC1=O returned UUG fidelity -42, MC4R antagonist 68*, NALP1 yeast inh 31, HDAC3 inhib 9, MC4R ag barr 7, ALR inh 99*, cAMP nonselect 39* and MC4R cAMP antag 76*.
Screening CCCCNc1c(-c2cccc(-c3ccc(OC)cc3)c2)nc2cc(C)ccn12 returned UUG fidelity -4, MC4R antagonist 34*, HDAC3 inhib 3, MC4R ag barr 0, ALR inh 11, cAMP nonselect 30* and MC4R cAMP antag 56*.
For CCCCNc1c(-c2ccc(OC)c(SC3CCCCC3)c2)nc2cc(C)ccn12 the results were UUG fidelity -18, MC4R antagonist 18, HDAC3 inhib -3 and MC4R ag barr -2.
Screening CCCCNc1c(-c2ccc(-c3cccc(Cl)c3)cc2)nc2ccccn12 returned UUG fidelity -16, MC4R antagonist 23, HDAC3 inhib -10 and MC4R ag barr 0.
Screening CCCCNc1c(-c2cccc(-c3ccc(OC)cc3)c2)nc2ccc(C)cn12 returned UUG fidelity -13, MC4R antagonist 40*, HDAC3 inhib -12, MC4R ag barr 3, cAMP nonselect 15* and MC4R cAMP antag 41*.
C[C@@H]1CN([C@@H](C)CO)C(=O)c2cc(NC(=O)Nc3ccc(C(F)(F)F)cc3)ccc2O[C@H]1CN(C)C(=O)Nc1ccc2c(c1)OCO2 was read as UUG fidelity -18.
